Assay results reported in US11045472B2, “Quinazoline-pyridine derivatives for the treatment of cancer-related disorders” (ARCUS BIOSCIENCES, INC., priority 2017, dated 2021).

Sequences of proteins named here, by UniProt entry; tags and fusion partners are left off.
UniProt P29275, whole entry: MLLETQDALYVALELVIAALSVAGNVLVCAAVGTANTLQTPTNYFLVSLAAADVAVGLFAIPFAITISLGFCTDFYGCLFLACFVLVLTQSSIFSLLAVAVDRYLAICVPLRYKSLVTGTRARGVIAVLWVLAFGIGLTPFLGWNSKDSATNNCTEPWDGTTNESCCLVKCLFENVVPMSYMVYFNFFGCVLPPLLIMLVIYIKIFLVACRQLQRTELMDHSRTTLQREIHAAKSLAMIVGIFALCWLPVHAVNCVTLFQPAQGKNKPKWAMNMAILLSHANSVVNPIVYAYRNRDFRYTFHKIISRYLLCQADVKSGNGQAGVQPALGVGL

Tests used:
Human A2AR = Human A2AR (Homo sapiens, UniProt P29274); assay: human 2A Adenosine Receptor (A2aR) CHO-TREx cAMP functional assay; conditions: read-out: Potency: A2AR KB; cAMP antagonist functional assay, CHO-T-REx cells expressing Human A2AR, NECA stimulation
Protocol: Measurement of the Adenosine Receptor Activity of Compounds using a human 2A Adenosine Receptor (A2aR) CHO-TREx cAMP Functional Assay
The cAMP antagonist functional assay (Perkin Elmer) was performed on CHO-T-REx cells induced to express Human A2AR. Cells were seeded to a white 384-well Opti plate at a density of 1,000 to 2,500 cells per well followed by incubation with various concentrations of compound (ranging from 1 μM to 0 μM) at 37° C. for 1 hour.
(§1) A 1:2 serial dilution of NECA (Sigma Aldrich) from 1 μM to 0 μM was added to the cell stimulation mixture and incubated for 30 min at 37° C. After 30 min incubation, 5 μL of Ulight-anti-cAMP (1:150 dilution with conjugate and lysis buffer provided by Perkin Elmer) and 5 μL of Eu-cAMP tracer (1:50 dilution with conjugate and lysis buffer provided by Perkin Elmer) was added the cells and incubated for an hour. FRET signal was detected with an Envision multilabel plate reader (Perkin Elmer) loaded with 615 nm […] filters and 665 nm emission filters.
(§2) Data analysis was performed using on GraphPad Prism (version 7.02) to determine the KB of the test compounds.

Human A2BR = Human A2BR (Homo sapiens, UniProt P29275); assay: Human 2B Adenosine Receptor CHO-K1 cAMP functional assay; conditions: read-out: Potency: A2BR KB; cAMP antagonist functional assay, CHO-K1 cells stably expressing Human A2BR, NECA stimulation
Protocol: Measurement of the Adenosine Receptor Activity of Compounds Using a Human 2B Adenosine Receptor CHO-K1 cAMP Functional Assay
CHO-K1 cells stably expressing Human Adenosine 2B Receptor (A2BR: Cat. No. M000329, GenScript) were purchased from GenScript Inc., Piscataway, N.J. 08854, USA.
The cAMP antagonist functional assay (Perkin Elmer) was performed on CHO-K1 cells stably expressing Human A2BR. 1×10^6 cells were seeded in T75 flasks and cultured at 37° C. and 5% CO2 overnight. 2,000-4,000 cells/well of stably-expressed A2bR CHO-K1 cells were then seeded to a white 384-well Opti plate followed by compound 1 incubation at various concentrations (ranging from 1 μM to 0 μM) at 37° C. for 1 hour.
as §1, §2

Kb (Human A2AR) | Kb (Human A2BR) | SMILES
< 100 nM | < 100 nM | Cc1cccc2c(-c3cn(Cc4cccc(C5(O)CCC5)[n+]4[O-])nn3)nc(N)nc12
< 100 nM | 100 to 1000 nM | COc1c(F)ccc2c(-c3cn(Cc4cccc(C(C)(C)O)[n+]4[O-])nn3)nc(N)nc12
< 100 nM | < 100 nM | COc1cc(F)cc2c(-c3cn(Cc4cccc(C5(O)CCC5)[n+]4[O-])nn3)nc(N)nc12
< 100 nM | < 100 nM | Nc1nc(-c2cn(Cc3cccc(C4(O)CCC4)[n+]3[O-])nn2)c2cccc(F)c2n1
< 100 nM | < 100 nM | Nc1nc(-c2cn(Cc3cccc(C4(O)CCC4)[n+]3[O-])nn2)c2cccc(Cl)c2n1
< 100 nM | < 100 nM | COc1cccc2c(-c3cn(Cc4cccc(C5(O)CCOCC5)[n+]4[O-])nn3)nc(N)nc12
< 100 nM | 100 to 1000 nM | Nc1nc(-c2cn(Cc3cccc(C4=CCC4)[n+]3[O-])nn2)c2cccc(Cl)c2n1
< 100 nM | < 100 nM | COc1c(F)ccc2c(-c3cn(Cc4cccc(C5(O)CCC5)[n+]4[O-])nn3)nc(N)nc12
< 100 nM | < 100 nM | COc1cccc2c(-c3cn(Cc4cccc(C5CC5)[n+]4[O-])nn3)nc(N)nc12
< 100 nM | 100 to 1000 nM | COCC(C)(C)c1cccc(Cn2cc(-c3nc(N)nc4c(OC)cccc34)nn2)[n+]1[O-]
100 to 1000 nM | 100 to 1000 nM | COc1ccc2c(-c3cn(Cc4cccc(C5(O)CS(=O)(=O)C5)[n+]4[O-])nn3)nc(N)nc2c1
< 100 nM | 100 to 1000 nM | CC(C)(CO)c1cccc(Cn2cc(-c3cc(N)nc4c(F)cccc34)nn2)[n+]1[O-]
< 100 nM | < 100 nM | COc1cccc2c(-c3cn(Cc4cccc(C(C)(C)CO)[n+]4[O-])nn3)nc(N)nc12
< 100 nM | < 100 nM | COc1cccc2c(-c3cn(Cc4cccc(C(C)(C)O)[n+]4[O-])nn3)cc(N)nc12
< 100 nM | 100 to 1000 nM | CC(C)(O)c1cccc(Cn2cc(-c3cc(N)nc4c(F)cccc34)nn2)[n+]1[O-]
< 100 nM | 100 to 1000 nM | COc1cccc2c(-c3cnn(Cc4cccc(C5(O)CCC5)[n+]4[O-])c3)nc(N)nc12
< 100 nM | < 100 nM | COc1cccc2c(-c3cn(Cc4cccc(C5(O)CCC5)[n+]4[O-])nn3)nc(N)nc12
